Sequences of proteins named here, by UniProt entry; tags and fusion partners are left off.
UniProt P31389, whole entry, looked up: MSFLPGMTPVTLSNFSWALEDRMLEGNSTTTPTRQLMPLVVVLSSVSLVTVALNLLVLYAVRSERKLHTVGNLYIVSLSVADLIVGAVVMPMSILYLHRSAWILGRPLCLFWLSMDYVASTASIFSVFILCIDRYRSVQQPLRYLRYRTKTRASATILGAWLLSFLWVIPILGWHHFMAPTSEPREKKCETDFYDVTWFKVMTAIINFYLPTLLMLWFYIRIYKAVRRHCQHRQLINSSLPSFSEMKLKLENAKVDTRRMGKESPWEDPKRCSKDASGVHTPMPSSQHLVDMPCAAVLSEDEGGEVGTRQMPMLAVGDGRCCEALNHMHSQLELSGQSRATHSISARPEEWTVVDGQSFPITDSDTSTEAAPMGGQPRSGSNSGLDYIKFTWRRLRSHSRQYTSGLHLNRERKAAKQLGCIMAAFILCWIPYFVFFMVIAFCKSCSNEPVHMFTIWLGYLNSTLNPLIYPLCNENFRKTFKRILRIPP

In ChEMBL document CHEMBL1128457, “New antihistamines: substituted piperazine and piperidine derivatives as novel H1-antagonists” (J Med Chem, 1995):

Biological target: Histamine H1 receptor (Cavia porcellus) (UniProt P31389)
Assay: In vitro antagonism of histamine-induced contraction of guinea pig ileum at 1x10E-7M
Type: functional, tissue-based

| SMILES | inhibition |
| --- | --- |
| Cn1c(=O)c2c(ncn2CCN2CCC(C(c3ccccc3)c3ccccc3)CC2)n(C)c1=O | 86% |
| Cn1c(=O)c2c(ncn2CCN2CCN(C(c3ccc(F)cc3)c3ccc(F)cc3)CC2)n(C)c1=O | 34% |
